{
  "sequences": {"note": "Protein sequences, listed by entry. Tags and fused reporters are not part of them. Lines headed by an entry give the natural chain unless they say otherwise; changes in a name come on top. Chains listed by the source or under a name are the forms on record and can include a tag or linker. Residues count along the entry.", "UniProt P62136, 7-330 partner": "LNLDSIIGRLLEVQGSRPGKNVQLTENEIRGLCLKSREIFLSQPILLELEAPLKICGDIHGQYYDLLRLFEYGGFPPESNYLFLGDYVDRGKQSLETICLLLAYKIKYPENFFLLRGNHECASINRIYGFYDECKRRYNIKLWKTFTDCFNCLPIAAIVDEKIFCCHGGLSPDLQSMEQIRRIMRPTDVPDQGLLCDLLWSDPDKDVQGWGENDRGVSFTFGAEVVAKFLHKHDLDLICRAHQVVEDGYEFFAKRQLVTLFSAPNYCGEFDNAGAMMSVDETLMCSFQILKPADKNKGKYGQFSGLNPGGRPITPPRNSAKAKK", "R15A^N/R15B^C (Homo sapiens, UniProt O75807+Q5SWA1), UniProt O75807+Q5SWA1, fused, stated change not applied": "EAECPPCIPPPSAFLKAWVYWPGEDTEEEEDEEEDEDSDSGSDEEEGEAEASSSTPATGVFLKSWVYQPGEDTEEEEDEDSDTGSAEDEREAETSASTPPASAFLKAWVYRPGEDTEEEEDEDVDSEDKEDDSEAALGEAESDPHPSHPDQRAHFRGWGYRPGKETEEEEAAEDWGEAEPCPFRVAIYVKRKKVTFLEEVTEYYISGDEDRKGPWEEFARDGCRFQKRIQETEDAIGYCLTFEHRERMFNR"},
  "source": "patent US20200199647A1",
  "about": "“ASSAY FOR SCREENING MODULATORS OF HOLOPHOSPHATASE ACTIVITY” (UNITED KINGDOM RESEARCH AND INNOVATION, priority 2017, published 2020)",
  "key": {"α-2 adrenergic": {"system": "α-2 adrenergic", "conditions": "cited from earlier work"}, "[1]": {"biological_target": "T1, PP1 (1 μM) in the presence of R15A (Homo sapiens, UniProt O75807)", "T1 construct": "PPP1R15A amino acids 325-636 (R15A); His6 (C); made in house; host or cells: E. coli BL21 pLysS (R15A, eIF2α); E. coli BL21/pGro7 (PP1c)", "experiment": "In vitro dephosphorylation of P-eIF2α using stoichiometric PP1c (1 μM) with R15A", "assay_type": "biochemical", "conditions": "1 μM PP1c, 1 μM P-eIF2α, 30° C., 16 h; compounds 100 μM", "procedure": "(§1) PP1c was diluted to the appropriate concentration (as indicated in the figure legends) in dephosphorylation buffer immediately prior to use. Dephosphorylation reactions were carried out by pre-incubating diluted PP1c in the presence or absence of regulatory subunits (either […]), and/or compounds (all at 100 μM, except for Salubrinal which was used at 30 μM), for 15′ at RT. All compounds were diluted in DMSO, and DMSO vehicle was used in all control experiments.\n(§2) The reaction was initiated by the addition of 1 μM P-eIF2α or ^33P Phosphorylase a substrates and then incubated at 30° C. for 16 h with shaking at 350 rpm. Reactions were stopped by addition of 4× Laemmli sample buffer. eIF2α samples were analyzed by immunoblotting or Phos-tag gels. […] Samples in FIG. 8 and FIG. 16 were run on a 15% SuperSep Phos-tag acrylamide gel (Alpha Laboratories) and visualized by staining with InstantBlue Protein Stain."}, "R15A [2]": {"biological_target": "T2, R15A (Homo sapiens, UniProt O75807)", "T2 construct": "PPP1R15A amino acids 325-636 (R15A); His6 (C); made in house; host or cells: E. coli BL21 pLysS", "experiment": "Pull-down: binding of P-eIF2α to MBP-tagged R15A on amylose beads", "conditions": "200 μM compound, 200 nM MBP-R15A, 1 μM P-eIF2α, 10 min 4° C.", "procedure": "(§3) Purified MBP-tagged regulatory subunits (200 nM), P-eIF2α (1 μM), PP1c ([…]), and 200 μM compounds, or DMSO vehicle, were added as appropriate to 20 μl amylose magnetic bead, pre-equilibrated with interaction buffer (50 mM Tris (pH 7.4), 200 mM NaCl, 0.05% Tween20) in 200 μl volume. All protein dilutions were carried out in interaction buffer. 5% input sample was removed, and added to 4× Laemmli sample buffer for later analysis. The beads were incubated for 10′ at 4° C. The supernatant was removed, and the beads were washed thoroughly with interaction buffer and then resuspended with 50 μl of 2× Laemmli sample buffer. Samples were run on 4-12% NuPAGE Bis-Tris gels (Life Technologies) and analysed by immunoblotting, using anti-MBP HRP (E8038) (NEB), anti-eIF2α (ab26197) (AbCam) or anti-PPP1A (ab137512) (AbCam) antibodies."}, "R15A [3]": {"biological_target": "T2, R15A", "experiment": "Light scattering to monitor aggregation of R15A", "conditions": "1 mM compound, 5 μM R15A, 10 min, 20° C.", "procedure": "Samples were incubated for 10 min at RT. […] Therefore, light scattering was measured at 380 nm emission, 380 nm absorption to monitor the presence of aggregates. For each sample, 100 data points were collected over a period of 10 min, at 20° C., with constant stirring."}, "PP1c": {"biological_target": "T3, PP1c (Homo sapiens, UniProt P62136)", "T3 construct": "The cDNA encoding amino acids 7-330 of human PP1cα; Thio6/His6 tag (MGSDKIHHHHHH) (N); made in house; host or cells: E. coli BL21/pGro7 (PP1c); E. coli BL21 pLysS (eIF2α)", "experiment": "Dephosphorylation of P-eIF2α by increasing amounts of PP1c alone", "assay_type": "biochemical", "conditions": "compound 100 μM, 30° C., 16 h", "procedure": "as §1, §2"}, "[4]": {"system": "Charcot-Marie-Tooth 1B (CMT-1B) and a SOD1 form of amyotrophic lateral sclerosis (ALS)", "conditions": "mice, CMT-1B and SOD1 ALS; cited from earlier work"}, "R15B": {"biological_target": "T4, R15B (Homo sapiens, UniProt Q5SWA1)", "T4 construct": "PPP1R15B amino acids 340-698 (R15B); His6 (C); made in house; host or cells: E. coli BL21 pLysS", "T4 sequence (Q5SWA1 340-698)": "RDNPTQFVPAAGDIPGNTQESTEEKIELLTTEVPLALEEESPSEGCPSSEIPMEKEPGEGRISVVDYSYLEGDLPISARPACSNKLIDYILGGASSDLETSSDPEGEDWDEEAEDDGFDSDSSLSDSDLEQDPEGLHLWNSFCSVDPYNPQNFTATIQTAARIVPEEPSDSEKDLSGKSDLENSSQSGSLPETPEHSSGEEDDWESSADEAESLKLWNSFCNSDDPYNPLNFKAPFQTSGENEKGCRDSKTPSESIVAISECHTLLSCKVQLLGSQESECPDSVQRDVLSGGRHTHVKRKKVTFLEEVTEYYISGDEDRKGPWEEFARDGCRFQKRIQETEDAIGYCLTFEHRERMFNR", "experiment": "Pull-down: binding of P-eIF2α to MBP-tagged R15B on amylose beads", "conditions": "200 μM compound, 200 nM MBP-R15B, 1 μM P-eIF2α, 10 min 4° C.", "procedure": "as §3"}, "R15A-PP1c": {"biological_target": "T5, R15A-PP1c (Homo sapiens, UniProt O75807)", "T5 construct": "PPP1R15A amino acids 325-636 (R15A); His6 (C); made in house; host or cells: E. coli BL21 pLysS (R15A, eIF2α); E. coli BL21/pGro7 (PP1c)", "experiment": "In vitro dephosphorylation of P-eIF2α by recombinant R15A-PP1c holophosphatase (10 nM PP1c)", "assay_type": "biochemical", "conditions": "PP1c 10 nM, 1 μM P-eIF2α, compounds 100 μM, 30° C., 16 h", "procedure": "as §1, §2"}, "R15A [5]": {"biological_target": "T2, R15A", "experiment": "Binding of R15A to biotinylated compounds on Streptavidin beads and elution", "procedure": "Purified R15A protein was diluted to 1 μM in IP buffer (50 mM Tris [pH 7.4], 150 mM NaCl, 0.1% Tween20, 10% glycerol). 1 μM R15A, in 100 μl volume, was pre-cleared with 25 μl of Pierce Streptavidin Magnetic Beads (ThermoFisher) for 1 h at 4° C. with rotation at 20 rpm. The supernatants were collected and incubated with 0.5 mM biotinylated Guanabenz, Sephin1 or biotin control plus 25 μl of pre-equilibrated Pierce Streptavidin Magnetic Beads. Samples were incubated for 3 h at 4° C. with rotation at 20 rpm. The supernatant was removed, and samples were thoroughly washed and transferred to a fresh Eppendorf. The beads were washed thoroughly with 5×1 ml interaction buffer, with 30 min incubation each time, and then resuspended with 50 μl of 4% SDS Laemmli sample buffer. Samples were run on 4-12% NuPAGE Bis-Tris gels (Life Technologies), and analysed by immunoblotting using α-MBP HRP (E8038) (NEB) (to reveal R15A). Elution experiments were performed on beads containing R15A bound to biotinylated-Guanabenz or biotinylated-Sephin1, by adding 100 μl of interaction buffer containing 2 mM Guanabenz or Sephin1, respectively, or DMSO vehicle control. Samples were incubated for 10 min at 4° C. with 20 rpm rotation. […] 10 μl sample was run on 4-12% NuPAGE Bis-Tris gel (Life Technologies), and analysed by immunoblotting using α-MBP HRP (E8038) (NEB) (to reveal R15A)."}, "R15B^N/R15A^C": {"biological_target": "T6, R15B^N/R15A^C (Homo sapiens, UniProt O75807+Q5SWA1)", "T6 construct": "PPP1R15B amino acids 340-698 (R15B), 340-635 (R15B^N), and 636-698 (R15B^C); PPP1R15A amino acids 325-636 (R15A), 325-512 (R15A^N), and 513-636 (R15A^C); R15A^C (PPP1R15A amino acids 513-636); His6 (C); made in house; host or cells: E. coli BL21 pLysS (chimera, eIF2α); E. coli BL21/pGro7 (PP1c)", "experiment": "Dephosphorylation of P-eIF2α by chimeric holophosphatase PP1c-R15B^N/R15A^C", "assay_type": "biochemical", "conditions": "PP1c 10 nM, compounds 100 μM, 30° C., 16 h", "text": "(§4) The cDNA encoding human PPP1R15A, PPP1R15B and PPP1R3A regulatory subunits were cloned into a pMAL-c5×-His vector, encoding for an amino-terminal MBP-tag and a carboxy-terminal His6-tag. […] R15A^N/R15B^C Chimeras were obtained by swapping the amino-terminal regions (R15^N) of R15A and R15B proteins described above, whilst maintaining the same carboxy-terminal regions (R15^C), to produce R15B^N/R15A^C and […] chimeras respectively, using In-Fusion cloning (Takara). All regulatory subunits were expressed in BL21 pLysS cells in Luria broth (LB) at 30° C. overnight. […] R15 proteins were stored at −80° C. and used within one month.\nas §1\n(§5) The reaction was initiated by the addition of 1 μM P-eIF2α or ^33P Phosphorylase a substrates and then incubated at 30° C. for 16 h with shaking at 350 rpm. Reactions were stopped by addition of 4× Laemmli sample buffer. eIF2α samples were analyzed by immunoblotting or Phos-tag gels. […]"}, "R15A^N/R15B^C": {"biological_target": "T7, R15A^N/R15B^C (Homo sapiens, UniProt O75807+Q5SWA1)", "T7 construct": "PPP1R15A amino acids 325-636 (R15A), 325-512 (R15A^N), and 513-636 (R15A^C); PPP1R15B amino acids 340-698 (R15B), 340-635 (R15B^N), and 636-698 (R15B^C); R15B^C (PPP1R15B amino acids 636-698); His6 (C); made in house; host or cells: E. coli BL21 pLysS (chimera, eIF2α); E. coli BL21/pGro7 (PP1c)", "experiment": "Dephosphorylation of P-eIF2α by chimeric holophosphatase PP1c-R15A^N/R15B^C", "assay_type": "biochemical", "conditions": "PP1c 10 nM, compounds 100 μM, 30° C., 16 h", "text": "as §4, §1, §5"}},
  "data": [
    {"smiles": "NC(N)=N/N=C/c1ccccc1Cl", "note": "[Sephin1]", "values": [
      {"measurement": "α-2 adrenergic activity", "setting": "α-2 adrenergic", "result": "devoid of both the α-2 adrenergic activity of Guanabenz"},
      {"measurement": "effect on dephosphorylation of eIF2α by PP1c with R15A", "setting": "[1]", "result": "neither the selective R15A inhibitors, Guanabenz and Sephin1, nor the selective inhibitor of R15B, Raphin1, had any measurable effects"},
      {"measurement": "effect on binding of eIF2α to R15A", "setting": "R15A [2]", "result": "selectively prevented the binding of eIF2α to R15A"},
      {"measurement": "aggregation of R15A (light scattering at 380 nm)", "setting": "R15A [3]", "result": "No aggregation"},
      {"measurement": "inhibition of PP1c alone", "setting": "PP1c", "result": "did not inhibit PP1c"},
      {"measurement": "prevention of defects in protein-misfolding diseases", "setting": "[4]", "result": "safely prevents the motor, morphological and molecular defects"},
      {"measurement": "effect on binding of eIF2α to R15B", "setting": "R15B", "result": "not R15B"},
      {"measurement": "inhibition of R15A-PP1c eIF2α holophosphatase", "setting": "R15A-PP1c", "result": "selectively inhibited R15A-PP1c"},
      {"measurement": "binding to R15A", "setting": "R15A [5]; 0.5 mM biotinylated compound on Streptavidin beads, 1 μM R15A", "result": "directly bind R15A"},
      {"measurement": "nature of binding to R15A (elution with excess compound)", "setting": "R15A [5]; elution with 2 mM free compound", "result": "not covalent"},
      {"measurement": "inhibition of R15B^N/R15A^C chimeric holophosphatase", "setting": "R15B^N/R15A^C", "result": "largely insensitive"},
      {"measurement": "inhibition of R15A^N/R15B^C chimeric holophosphatase", "setting": "R15A^N/R15B^C", "result": "inhibited"}
    ]}
  ]
}
